In patent US20260382688A1, “IMPLANTATION FACILITATOR, AND SCREENING SYSTEM THEREFOR” (published 2026):

Key:
[1] = test system: integrin; assay: AlphaScreen measurement of ability to form integrin activation complexes; conditions: 8 μM, FIG. 8
Source text: The activity of peptides was detected by measuring their ability to form integrin activation complexes using AlphaScreen.

[2] = test system: embryo and uterine organoid; assay: Implantation-like reaction in the in vitro implantation system (fusion of embryo with uterine organoid); conditions: control group 5/22; system without stromal cells 1/22; chi-square test and residual analysis
Source text: Uteri were collected from euthanized C56BL/6 or Rosa26^mCherry/mCherry mice, incised to expose the epithelium, and fragmented in this state. They were then subjected to an enzymatic treatment with Dispase, after which epithelial cells were collected. The epithelial cells were suspended in Matrigel and cultured in Advanced DMEM/F12 medium (WNT medium) supplemented with WNT3A, R-spondin 1, Noggin, EGF, and Hepes pH 7.4 to produce uterine organoids (Turco, 2017, Nature Cell Biology). Uterine tissues from which the epithelial cells had been removed were subjected to an enzymatic treatment with collagenase, after which stromal cells were collected. […] The uterine organoids and stromal cells derived from the C56BL/6 mice were fluorescently labeled with Cell Explorer™ Live Cell Tracking Kit Green Fluorescence (AAT Bioquest) immediately before performing an artificial implantation experiment.
B6D2F1 female mice were administered CARD HyperOva (Kyudo Co., Ltd.), and further administered human chorionic gonadotropin (ASKA Pharmaceutical Co., Ltd.) 48 hours later. […] The embryos were cultured in KSOM medium (ARK Resource Co., Ltd.) for 3 days to allow them to develop into blastocysts, which were fluorescently labeled with Cell Explorer™ Live Cell Tracking Kit Red Fluorescence (AAT Bioquest) immediately before performing an artificial implantation experiment. […]

[3] = test system: embryos (mouse blastocysts); assay: Attachment of embryos (mouse blastocysts) to glass surface; conditions: control 0/13; p<0.01, chi-square test
Description: (§1) B6D2F1 female mice were administered CARD HyperOva (Kyudo Co., Ltd.), and further administered human chorionic gonadotropin (ASKA Pharmaceutical Co., Ltd.) 48 hours later. Thereafter, they were mated with B6D2F1 male mice. The day after next, the female mice were euthanized, and two-cell stage embryos were collected from their oviducts. The embryos were cultured in KSOM medium (ARK Resource Co., Ltd.) for 3 days to allow them to develop into blastocysts, which were fluorescently labeled with Cell Explorer™ Live Cell Tracking Kit Red Fluorescence (AAT Bioquest) immediately before performing an artificial implantation experiment. […]
(§2) In order to examine whether the peptide medicament Iznm-2 actually causes integrin activation in embryos, blastocysts from which the zona pellucida had been removed were added to glass-bottom dishes (Matsunami) and cultured in implantation medium for 3 days. […] As a result, cells more strongly fluorescently stained as compared to cells in the control group (FIGS. 8A and 8C) were detected in the experimental group (FIGS. 8B and 8D).
The rate of attachment was 0/13 in the control group and 13/14 in the Iznm-2-added group, and a significant difference was detected between the two groups (p<0.01, chi-square test, FIG. 10C).

[4] = test system: activated integrin β1; assay: Activated integrin β1 immunofluorescence staining in embryos (blastocysts); conditions: blastocysts without zona pellucida, implantation medium, 3 days; antibody MAB2259Z
Description: as §1, with “experiment. For artificial insemination, Rosa26^H2B-EGFP/H2B-EGFP male mice at 8 weeks of age or older were euthanized, and sperm was collected from their cauda epididymides and cryopreserved using CARD FERTIUP Mouse Sperm Cryopreservation Solution (Kyudo Co., Ltd.).” for “experiment.”
as §2

[5] = test system: embryos; assay: Effect on embryo development after transfer to pseudopregnant mice (to E14); conditions: 32 μM Iznm-2 in KSOM medium at transfer
Description: In order to examine the effect of the peptide medicament on embryo development, the following experiment was performed. ICR male mice at 8 weeks of age were vasectomized. ICR female mice in proestrus were mated with the vasectomized male mice, and the female mice having developed a copulation plug on the following day were used as pseudopregnant female mice. Two days after confirming the presence of the copulation plug, B6D2F1 mouse embryos that had developed into blastocysts were transferred to the female mice. The blastocysts were added to KSOM medium supplemented with 32 μM Iznm-2 immediately before the transfer, and the embryos were transferred together with the medium. The amount of the medium injected into the uterus at the time of transfer was 5 μl or less. The embryo transfer was performed in the following manner. The pseudopregnant female mice were anesthetized, and the skin on one side in the dorsum and the abdominal wall of each mouse were incised to expose the uterus to the outside of the body. The uterus was pierced through with a 26-G needle, and the embryos were injected into the thus-formed hole together with the medium using a glass tube. After the transfer, the uterus was returned to the body, and the incision was sutured. The transferred embryos were allowed to develop in the recipient mice until E14. […]

[6] = test system: transferred embryos; assay: Embryo transfer with implantation window shift: implantation and development at E15.5; conditions: 8 μM at embryo transfer
Description: In order to examine the effect of the peptide medicament on embryo transfer, the following experiment was performed. ICR male mice at 8 weeks of age were vasectomized. ICR female mice in proestrus were mated with the vasectomized male mice, and the female mice having developed a copulation plug on the following day were used as pseudopregnant female mice. Two days after confirming the presence of the copulation plug, B6D2F1 mouse embryos that had developed into blastocysts were transferred to the female mice. The blastocysts were added to KSOM medium with 8 μM Iznm-2 or without 8 μM Iznm-2 (control) immediately before the transfer, and the embryos were transferred together with the medium. The amount of the medium injected into the uterus at the time of transfer was 5 μl or less. The blastocysts at 4.5 days post-coitum were transferred to the pseudopregnant mice at 2.5 days post-coitum. With such a difference in the number of days post-coitum, an embryo transfer experiment was performed before the uterus was fully prepared for implantation, thereby reproducing a mismatch between the timing at which the endometrium is ready to accept a fertilized egg and the timing when the fertilized egg reaches the endometrium (the so-called “implantation window shift”), which is one of the causes of infertility (FIG. 12). The embryo transfer was performed in the following manner. The pseudopregnant female mice were anesthetized, and the skin on one side in the dorsum and the abdominal wall of each mouse were incised to expose the uterus to the outside of the body. The uterus was pierced through with a 26-G needle, and the embryos were injected into the thus-formed hole together with the medium using a glass tube. After the transfer, the uterus was returned to the body, and the incision was sutured. The transferred embryos were allowed to develop in the recipient mice until E15.5. Thereafter, the surrogate mice were euthanized, and the embryos were removed from the bodies and the implantation rate and their development were examined (FIGS. 13A and 13B).

[7] = test system: maternal bodies (female mice); assay: Blood tests of maternal bodies after intraperitoneal administration (liver and kidney indicators); conditions: i.p., 8 μM with respect to total body weight, in corn oil
Description: An excess amount of Iznm-2 was administered intraperitoneally to female mice to examine the side effects of the peptide medicament. In Example 8, 8 μM Iznm-2 was administered together with 5 μl or less of the embryos to the uterus of each mouse. In the present experiment, Iznm-2 was administered in such a manner that the concentration thereof would be 8 μM with respect to the total weight of each mouse. Iznm-2 was dissolved in corn oil. As a control, corn oil without the peptide medicament was administered. Blood samples were collected 24 hours after the administration, and blood components serving as indicators of the condition of the liver and kidney were analyzed.

## CCCCCCCCCCCCCC(=O)N[C@@H](CCCCN)C(=O)N[C@@H](Cc1ccccc1)C(=O)N[C@@H](CCC(=O)O)C(=O)N[C@@H](CCC(=O)O)C(=O)N[C@@H](CCC(=O)O)C(=O)N[C@@H](CCCNC(=N)N)C(=O)N[C@@H](CCSC)C(=O)N[C@@H](CCCNC(=N)N)C(=O)N[C@@H](CS)C(=O)N[C@@H](CCCCN)C(=O)N[C@@H](Cc1c[nH]c2ccccc12)C(=O)N[C@@H](CCSC)C(=O)N[C@H](C(=O)O)[C@@H](C)O
[1]
  integrin activation effect: approximately 5 fold
[2]
  implantation-like reaction rate (number of embryos): 6/14

## CCCCCCCCCCCCCC(=O)N[C@@H](CCCCN)C(=O)N[C@@H](Cc1ccccc1)C(=O)N[C@@H](CCC(=O)O)C(=O)N[C@@H](CCC(=O)O)C(=O)N[C@@H](CCC(=O)O)C(=O)N[C@@H](CCCNC(=N)N)C(=O)N[C@@H](CO)C(=O)N[C@@H](CCCNC(=N)N)C(=O)N[C@@H](CS)C(=O)N[C@@H](CCCCN)C(=O)N[C@@H](Cc1c[nH]c2ccccc12)C(=O)N[C@@H](CCSC)C(=O)N[C@H](C(=O)O)[C@@H](C)O
[3]
  rate of attachment of embryos to glass surface: 13/14
[4]
  integrin activation (Active-Integrin β1) in embryos, fluorescent staining versus control group: cells more strongly fluorescently stained as compared to cells in the control group
[1]
  integrin activation effect: approximately 14 fold
[5]
  effect on embryo development: does not greatly affect embryo development
[5]; embryos removed at E14
  embryo development after transfer: developed normally
[2]
  implantation-like reaction rate (number of embryos): 12/19
[6]; FIGS. 13C and 13D, the rest did not develop at all
  fraction of implanted embryos that developed: about half of the implanted embryos developed
[6]; out of 22 implanted (41 transferred)
  implanted embryos developed normally: 12 embryos
[6]; out of 41 transferred embryos, 4.5 dpc blastocysts into 2.5 dpc pseudopregnant mice, control: none of 24
  transferred embryos successfully implanted: 22 embryos
[7]; 24 hours, corn oil control 0
  Liver I-BIL: 0.02 mg/dL
[7]; 24 hours, corn oil control 0.02
  Liver D-BIL: 0.02 mg/dL
[7]; 24 hours, corn oil control 0.08
  Liver T-BIL: 0.08 mg/dL
[7]; 24 hours, corn oil control 0.115
  Kidney CRE: 0.12 mg/dL
[7]; 24 hours, corn oil control 2.05
  Liver A/G: 1.85
[7]; 24 hours, corn oil control 3
  Liver γ-GT: 3 IU/L
[7]; 24 hours, corn oil control 3.25
  Liver ALB: 3.3 g/dL
[7]; 24 hours, corn oil control 24
  Liver & Kidney LAP: 26 IU/L
[7]; 24 hours, corn oil control 29.5
  Liver ChE: 32.5 IU/L
[7]; 24 hours, corn oil control 45
  Liver ALT: 38 IU/L
[7]; 24 hours, corn oil control 419.5
  Liver ALP: 463 IU/L
[7]; blood 24 hours after administration, corn oil control 4.85
  Liver & Kidney TP: 5.1 g/dL
